Chains of the proteins cited; added tags and fusions are not shown.
UniProt O08565, whole entry: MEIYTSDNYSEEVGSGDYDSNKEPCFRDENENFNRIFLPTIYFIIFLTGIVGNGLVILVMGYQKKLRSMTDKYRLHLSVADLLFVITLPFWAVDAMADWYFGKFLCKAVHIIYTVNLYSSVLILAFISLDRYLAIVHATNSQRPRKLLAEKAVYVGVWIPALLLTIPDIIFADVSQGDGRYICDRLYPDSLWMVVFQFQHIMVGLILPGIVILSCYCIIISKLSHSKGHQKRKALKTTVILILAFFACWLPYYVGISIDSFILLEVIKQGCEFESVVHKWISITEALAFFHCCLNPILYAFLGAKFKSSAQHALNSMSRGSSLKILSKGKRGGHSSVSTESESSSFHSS

According to ChEMBL document CHEMBL3886396, “Tricyclic amino containing compounds for treatment or prevention of symptoms associated with endocrine dysfunction” (2015):

Molecular target: C-X-C chemokine receptor type 4 (Rattus norvegicus, UniProt O08565)
Assay: Competitive Binding Assay: A synthetic 14-mer peptide, TN14003, was previously reported to block both SDF-1/CXCR4 mediated invasion in vitro and metastasis in vivo with a high specificity by binding competitively with its ligand SDF-1. Aa competitive binding assay using biotin-labeled TN14003 and streptavidin-conjugated rhodamine was developed to determine the binding efficiency of new chemical entities to the SDF-1 binding domain of CXCR4. Cells incubated with high affinity compounds show only blue nuclear staining, whereas compounds with low affinity result in staining CXCR4 (red; rhodamine) as well as the nuclei (blue; cytox blue).
Type: organism-based

SMILES	IC50
Fc1nc(F)nc(NCc2ccc(CNc3nc(F)nc(F)n3)cc2)n1	in the range around 100 nM
Fc1ccccc1NCc1ccc(CNc2ncccn2)cc1	in the range around 100 nM
